# Values of other authors in patent US20140038836A1, “Novel Pharmacogene Single Nucleotide Polymorphisms and Methods of Detecting Same” (priority 2012, published 2014).
# The chains behind the UniProt entries cited, without tags or fusion partners.
# UniProt P08913, whole entry: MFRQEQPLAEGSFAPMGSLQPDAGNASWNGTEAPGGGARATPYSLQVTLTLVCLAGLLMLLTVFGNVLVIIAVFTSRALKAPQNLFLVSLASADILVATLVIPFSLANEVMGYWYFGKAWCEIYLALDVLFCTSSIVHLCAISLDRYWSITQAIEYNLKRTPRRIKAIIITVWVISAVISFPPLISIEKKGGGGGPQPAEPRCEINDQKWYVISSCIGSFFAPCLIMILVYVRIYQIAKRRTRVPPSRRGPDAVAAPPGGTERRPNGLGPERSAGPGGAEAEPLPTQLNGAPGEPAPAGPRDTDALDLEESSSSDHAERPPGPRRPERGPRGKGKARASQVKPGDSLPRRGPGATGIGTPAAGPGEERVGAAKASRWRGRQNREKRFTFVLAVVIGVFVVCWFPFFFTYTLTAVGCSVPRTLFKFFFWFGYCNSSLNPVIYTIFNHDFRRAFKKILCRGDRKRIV
# Target: ADRA2A (alpha2A subtype alpha-2-adrenergic receptor) (Homo sapiens, UniProt P08913)
# Conditions: antagonists of the alpha2A receptor
smiles,measurement,value
CC(C)NC[C@H](O)COc1cccc2ccccc12 (racemic) [propanolol],rank order for antagonists,yohimbine>phentolamine=mianserine>chlorpromazine=spiperone=prazosin>propanolol>alprenolol=pindolol
